Experimental data taken from patent publication US20220168221A1 (priority 2020, published 2022).
Read-outs that look alike come from different tables or passages of the source.

Legend:
[1] = cited from earlier work
[2] = Human single ascending oral dose PK (Nix 2009)
[3] = rat, cited from earlier work
[4] = pH 4; cited from earlier work
[5] = Stability of nikZ in aqueous solution (DiW); assay type: physicochemical
[6] = cited from earlier work; for elimination half-life: humans
[7] = Solubility and solution properties of nikZ; assay type: physicochemical
[8] = Reported oral uptake and elimination of nikZ; assay type: in vivo, human; details: frequent, small dosing
[9] = tested on: virulent B311 strain of Candida albicans; details: rat, continuous IV infusion (33 mg/kg/day) or s.c. sustained release, 96 hours; cited from earlier work

In the case of `C[C@@H]([C@H](N)C(=O)N[C@H](C(=O)O)[C@H]1O[C@@H](n2ccc(=O)[nH]c2=O)[C@H](O)[C@@H]1O)[C@H](O)c1ccc(O)cn1` [nikZ, nikkomycin Z], the “blood drug level at 12 hours” value ([1]; human, 250 mg dose) is given as 200 ng/mL, the AUC ([1]; single dose of 2000 mg, human) is given as 40700 ng·h/mL and the half-life ([1]; single human dose of 250 mg) is given as “about 2.5 hours”. For the same molecule, the peak blood level ([2]; 750 mg single dose, estimated from FIG. 2B) was “about 4.5 μg/ml”, the “AUC extrapolated if uptake and clearance remained proportional to low dose values” ([2]; single dose of 2000 mg) was 92.8 µg·h/mL and the “steady state plasma concentration” value ([3]; continuous IV maintenance 33 mg/kg/day after loading dose) was “about 170 ng/ml”. The peak plasma concentration ([3]; continuous intravenous infusion, FIG. 2A) was 5 µg/mL, the “early peak plasma concentration” value ([3]; loading dose 20 mg/kg/hr for 2 hours) was “about 5000 ng/ml” and the “degradation in water (historical studies)” value [4] was “about 1 % per day”. For the same molecule, the degradation in solution ([5]; 0.5-5 g/L, 25° C.) was “about 1 % per day”, the degradation in solution ([5]; after 4 days at 25° C.) was “about 4%” and the stability of solution ([5]; native nikZ HCl salt pH of about 3.35) was “stable for days”. The “stability in aqueous solution” value ([5]; pH 7 and room temperature) was “only hours”, the degradation in solution ([5]; refrigerated) was “about 1 % per month” and the “degradation to cleavage products NikCz and NikD by hplc” value ([5]; samples as prepared for mouse dosing, 20-25° C.) was “about 1 % per day”. For the same molecule, the elimination half-life [6] was 2.5 h, the elimination half-life ([6]; listed as Nikkomycin Z) was “about 2.5 hours” and the route of elimination ([6]; in vivo) was “eliminated mostly by renal excretion”. The oral absorption efficiency ([6]; many species, including human) was 10-15%, the “uptake from an oral dosage form” value ([6]; oral) was 15-25% and the plasma half-life ([6]; roughly similar in mice and humans) was “about 2.5 hours”. For the same molecule, the “efficiency of oral uptake” value ([6]; single dose of 1000 mg) was “about 60%”, the net oral uptake ([6]; single dose of 1000 mg) was 7-12% and the “solubility of highest IP dose preparation” value ([7]; 1000 mg/kg BID dose, about 80 g/L in water) was “not fully soluble”. The saturation concentration ([7]; when chilled, about pH 3.35) was “about 25 g/L”, the oral availability [8] was “more than 50%” and the survival [9] was 100%.
